# Results from PubChem BioAssay AID743256 (The Scripps Research Institute Molecular Screening Center, 2014).
# Chains of the proteins cited; added tags and fusions are not shown. Lines headed by an entry give the natural chain unless they say otherwise; changes in a name come on top.
# UniProt O14672: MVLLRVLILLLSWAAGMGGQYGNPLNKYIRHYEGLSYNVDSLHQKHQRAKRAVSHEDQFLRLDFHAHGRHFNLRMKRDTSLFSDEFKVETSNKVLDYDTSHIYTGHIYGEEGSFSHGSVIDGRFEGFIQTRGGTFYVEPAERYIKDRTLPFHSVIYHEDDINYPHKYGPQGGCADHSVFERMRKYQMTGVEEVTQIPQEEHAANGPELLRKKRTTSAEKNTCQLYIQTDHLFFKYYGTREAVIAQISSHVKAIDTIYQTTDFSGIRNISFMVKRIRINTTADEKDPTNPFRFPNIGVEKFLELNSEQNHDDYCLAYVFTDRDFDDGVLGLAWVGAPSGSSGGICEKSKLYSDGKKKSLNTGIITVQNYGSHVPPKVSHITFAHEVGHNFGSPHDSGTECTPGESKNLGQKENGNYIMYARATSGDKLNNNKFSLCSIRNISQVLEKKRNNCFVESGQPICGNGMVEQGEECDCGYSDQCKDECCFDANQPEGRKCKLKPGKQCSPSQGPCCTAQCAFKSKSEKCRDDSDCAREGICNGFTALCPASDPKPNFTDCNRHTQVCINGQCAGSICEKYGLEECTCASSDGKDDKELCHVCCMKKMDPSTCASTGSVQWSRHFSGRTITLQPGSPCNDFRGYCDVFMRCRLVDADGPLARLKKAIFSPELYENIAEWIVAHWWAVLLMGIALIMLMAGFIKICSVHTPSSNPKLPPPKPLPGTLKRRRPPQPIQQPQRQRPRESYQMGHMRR
# The list shows a part of the results, in another mix than the full data. The source made the active and inactive calls.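 Rule for the calls: active = mean inhibition over the triplicate runs exceeds the activity threshold set in the earlier primary screen (cut at about 20% in these data); inactive = the rest.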
# Biological target: Disintegrin and metalloproteinase domain-containing protein 10 (Homo sapiens) (UniProt O14672)
# Experiment: ADAM10 inhibitors, counter-screen for ADAM17 exosite inhibitor project, biochemical, FRET, human ADAM10 (AID 743256);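 note: 0% = DMSO wells and 100% = marimastat wells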
# Conditions: recombinant ADAM10, EDANS/DABCYL FRET peptide cleavage, 3 h; at 6.95 µM; stronger effect = higher value
# Procedure, shortened: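 System: human ADAM10 metalloprotease enzyme in a cell-free biochemical assay; amount: enzyme 2X stock at 20 nM; signal: FRET fluorescence readout; also added: EDANS/DABCYL DM2 peptide, 2X stock 20 µM; control set: 1 µM marimastat (high) and DMSO (low); times: 30 min plus 3 h, 25 °C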
row,SMILES,inhibition
1,O=[N+]([O-])c1cc([N+](=O)[O-])c(CCNc2ccccc2)c([N+](=O)[O-])c1,inactive: -1.4%
